Measurements taken from patent US20210154272A1, “NEUROMODULATING COMPOSITIONS AND RELATED THERAPEUTIC METHODS FOR THE TREATMENT OF CANCER BY MODULATING AN ANTI-CANCER IMMUNE RESPONSE” (Flagship Pioneering Innovations V, Inc., priority 2016, published 2021).

Test system: macrophages differentiated from CD14+ monocytes
Assay: Macrophage activation and cytokine secretion assay
Assay type: cell-based, human
Details: dilutions from 10 μM to 1 nM
Protocol: Peripheral blood mononuclear cells (PBMCs) were isolated from whole blood by ficoll density separation. Briefly, blood was diluted 1:2 with 0.5 mM EDTA solution in PBS, loaded onto a Ficoll-filled Leucosep tube (Greiner Bio-One), and centrifuged for 20 minutes at 1000×g. After centrifugation, the leukocyte/PBMC layer was collected and sequentially washed three times with 0.5 mM EDTA solution in PBS.
Monocytes (CD14+) were isolated from PBMCs using magnetic bead-based separation following vendor specifications, e.g., Biolegend MojoSort Human CD14 Selection Kit protocol. In brief, PBMCs were labeled with biotinylated antibodies against cell surface receptors for cells not in the population of interest. The labeled cells are then captured by streptavidin-coated magnetic beads and removed by magnetic incubation. […]
Supernatants were collected at 24, 48, and 72 hrs and cytokine secretion was analyzed by flow cytometry using a LEGENDplex assay (BioLegend). […] The beads were then stained and the captured cytokine composition assessed by flow cytometry.
M1 macrophage polarization is defined as increase in production of IL-12, TNF, IL-6, IL-8, IL-1B, MCP-1 and CCL2. Additionally, markers of M1 polarization that can be detected by RNA include Nos2. […] Additionally, markers of M2 polarization that can be detected by RNA include Arg1, IDO, PF4, CCL24, IL10, and IL4Ralpha.

CGRP (ACDTATCVTHRLAGLLSRSGGVVKNNFVPTNVGSKAF; Calcitonin gene-related peptide 1; UniProt P06881 83-119, looked up) [neuropeptide CGRP]
secretion of TNFα (M1 marker): increased
macrophage polarization (M1 or M2 phenotype): polarized toward an M1 phenotype
